Reference: patent US10983137B2, “Diagnosis of leukocyte-mediated disease and halogen gas exposure” (dated 2021)

Experiment: Mouse lung/plasma FALD-GSH analysis after bromine exposure
Conditions: mice, 600 ppm bromine for 30 min
Description: Plasma samples from mice exposed to bromine and chlorine were analyzed by LC/MS with SRM detection of FALD-GSH (including HDA-GSH and ODA-GSH) as described in the manuscript (Appendix A). […] . At indicated times plasma and lung was collected from these mice and the FALD-GSH was quantified. […] No adduct is observed in the plasma of mice exposed to air only (the first bar). […] By Ninety-six hours very little FALD-GSH is detectable.

bromine
amount of FALD-GSH adduct in plasma, 72 hr following exposure (72 hr): still detectable but has decreased | FALD-GSH in plasma, 96 hours following exposure (96 hours): very little FALD-GSH is detectable | FALD-GSH in plasma (vs air only): robust increases
